“And” between values parts separate entries of the source, which are not always exact repeats. Equal values may be shown once. Read-outs that look alike come from different tables or passages of the source.
Columns and labels:
[1] = Circular dichroism spectroscopy; type: physicochemical; settings: for min λ, Phosphate buffer / min λ, TFE / max λ, TFE / max λ, Phosphate buffer: CD spectrum; for min λ, Phosphate buffer / Conformation in buffer / max λ, Phosphate buffer: 10 mM sodium phosphate buffer, pH 7.2; for min λ, TFE / Conformation in TFE / max λ, TFE: phosphate buffer and 40% (v/v) trifluoroethanol; for Conformation in buffer / Conformation in TFE: CD
[2] = test system: sheep RBC; assay: Red blood cell (RBC) lysis assay, standardized conditions (1% RBC); type: cell-based; settings: for % lysis at 5 μg/ml: 5 μg/ml peptide
[3] = test system: mammalian red blood cells; settings: for % Lysis: 37° C., 1 hour
[4] = Acute single dose toxicity, intravenous route, isotonic saline; type: in vivo; settings: Swiss CD1 mice, 5 days
Method: In vivo toxicity of a peptide is measured through administration of a range of doses to animals, typically mice, by a route defined in part by the intended clinical use. […]. Indolicidin analogues less toxic than indolicidin are preferred.
(§1) The acute, single dose toxicity of various indolicidin analogues is tested in Swiss CD1 mice using various routes of administration. In order to determine the inherent toxicities of the peptide analogues in the absence of any formulation/delivery vehicle effects, the peptides are all administered in isotonic saline with the final pH between 6 and 7.
Intravenous route. […]. […]

[5] = Acute single dose toxicity, intraperitoneal route, isotonic saline; type: in vivo; settings: Swiss CD1 mice, 5 days
Method: In vivo toxicity of a peptide is measured through administration of a range of doses to animals, typically mice, by a route defined in part by the intended clinical use. The survival of the animals is recorded and LD50, LD90-100, and maximum tolerated dose (MTD) can be calculated to enable comparison of analogues. Indolicidin analogues less toxic than indolicidin are preferred.
as §1
Intraperitoneal route. Groups of 6 mice are injected with peptide doses of between 80 and 5 mg/kg in 500 μl dose volumes. […] The LD50 values are calculated using the method of Reed and Muench (J. of Amer. Hyg. 27:493-497, 1938).

[6] = test system: bacterial isolates
[7] = test system: microorganisms with acquired resistance
[8] = Single and multiple dose toxicity, intravenous injection, formulations; type: in vivo, outbred ICR mice; settings: Intravenous injection, single dose, outbred ICR mice (Table 32)
[9] = Single dose toxicity, intraperitoneal injection, formulations; type: in vivo, outbred ICR mice; settings: Intraperitoneal injection, single dose, outbred ICR mice (Table 32)
Method: The single dose toxicity of a cationic peptide and antibiotic agent combination is examined in outbred ICR mice. Intraperitoneal injection of the combination in isotonic saline is carried out at increasing dose levels. The survival of the animals is monitored for 7 days. The number of animals surviving at each dose level is used to determine the maximum tolerated dose (MTD). In addition, the MTD can be determined after administration of the peptide and agent by different routes, at different time points, and in different formulations.
The single dose toxicity of MBI 10CN and MBI 11CN is examined in outbred ICR mice (Table 32).
The single dose toxicity of MBI 10CN and MBI 11CN in different formulations is also examined in outbred ICR mice (Table 36). Intraperitoneal injection (groups of 2 mice) of MBI 10CN in formulation D show no toxicity up to 29 mg/kg and under the same conditions MBI 11CN show no toxicity up to 40 mg/kg.

LKKWPWWPWRRK [MBI 11D1CN]
min λ, Phosphate buffer [1]: 200 nm | min λ, TFE [1]: 204 nm | Conformation in buffer [1]: Unordered | Conformation in TFE [1]: Unordered

ILRRWPWWPWRRR [MBI 11B9ACN]
min λ, Phosphate buffer [1]: 200 nm | min λ, TFE [1]: 200 nm | Conformation in buffer [1]: Unordered | Conformation in TFE [1]: Unordered

ILKKWPWWPWRRK [MBI 11E2CN]
min λ, Phosphate buffer [1]: 200 nm | min λ, TFE [1]: 201 nm | Conformation in buffer [1]: Unordered | Conformation in TFE [1]: Unordered

Gramicidin-S
% lysis at 5 μg/ml ([2]; 1% (v/v) sheep RBC, pH 6-7): 30%

ILKKWPWW PWKKK [MBI 11B10CN]
% Lysis [3]: 0.2%

ILKKWPWWWRK [MBI 11D15CN]
% Lysis [3]: 0.9%

ILKNPNNPWRR [MBI 11G7ACN]
min λ, Phosphate buffer [1]: 200 nm | max λ, TFE [1]: 221 nm | min λ, TFE [1]: 202 nm | Conformation in buffer [1]: Unordered | Conformation in TFE [1]: Unordered

ILKKWPWPWRRK [MBI 11A4CN]
% Lysis [3]: 0.3%

ILKKWPWWPWRPMILKKAGS [MBI 11D5CN]
% Lysis [3]: 0.7%

PWWPWRRK [MBI 11D3CN]
% Lysis [3]: 0.8%

ILKKWVWWPWRRK [MBI 11F3CN]
max λ, Phosphate buffer [1]: 228 nm | min λ, Phosphate buffer [1]: 199 nm | min λ, TFE [1]: 202 nm | Conformation in buffer [1]: ppII helix | Conformation in TFE [1]: Unordered | LD50 [4]: 10 mg/kg | LD90-100 [4]: 12 mg/kg | MTD [4]: 8 mg/kg | % lysis at 5 μg/ml ([2]; 1% (v/v) sheep RBC, pH 6-7): 1% | % lysis at 50 μg/ml ([2]; 1% (v/v) sheep RBC, 50 μg/ml peptide, pH 6-7): 6% | % lysis at 500 μg/ml ([2]; 1% (v/v) sheep RBC, 500 μg/ml peptide, pH 6-7): 17% | lysis relative to the other analogues ([2]; 5, 50 and 500 μg/ml): significantly less lytic than the other two variants | LD50 [5]: 52 mg/kg | LD90-100 [5]: 80 mg/kg | MTD [5]: 20 mg/kg

ILKKWPWWPWRR [MBI 11G7CN]
% Lysis [3]: 1.5%

ILKKYPWYPWRRK [MBI 11A5CN]
% Lysis [3]: 0.3%

ILKKWPWWPWR [MBI 11G14CN]
% Lysis [3]: 1.1%

ILWPWWPWRRK [MBI 11B8CN]
% Lysis [3]: 1.1%

ILKKWPWWVWRRK [MBI 11F2CN]
% Lysis [3]: 1.4%

ILKKIPIIPIRRK [MBI 11A2CN]
% Lysis [3]: 0.1%

ILKKFPFFPFRRK [MBI 11A1CN]
% Lysis [3]: 0.5%

ILRRWPWWPWRK [MBI 11B2CN]
% Lysis [3]: 3.2%

ILRRNPNNPNRRK [MBI 11B1CNW1]
min λ, Phosphate buffer [1]: 201 nm | min λ, TFE [1]: 201 nm | Conformation in buffer [1]: Unordered | Conformation in TFE [1]: Unordered

ILRRWPWWPWRRK [MBI 11B1CN]
% Lysis [3]: 3.1%

Gentamicin
Gentamicin MIC Alone ([6]; A. baumannii ABI001): 64 µg/mL | Gentamicin MIC Alone ([6]; E. coli ECO006): 64 µg/mL | Gentamicin MIC Alone ([6]; K. pneumonia KP020): 64 µg/mL | Gentamicin MIC Alone ([6]; S. aureus SA025 MRSA): 64 µg/mL | Gentamicin MIC Alone ([6]; S. epidermidis SE074): 64 µg/mL | Gentamicin MIC Alone ([6]; S. maltophilia SMA017): 64 µg/mL | Gentamicin MIC Alone ([6]; S. maltophilia SMA021): 64 µg/mL | Gentamicin MIC Alone ([7]; A. baumannii ABI001): 64 µg/mL | Gentamicin MIC Alone ([7]; S. maltophilia SMA017): 64 µg/mL | Gentamicin MIC Alone ([7]; S. maltophilia SMA019): 64 µg/mL | Gentamicin MIC Alone ([7]; S. maltophilia SMA020): 64 µg/mL | Gentamicin MIC Alone ([7]; S. maltophilia SMA021): 64 µg/mL

KKWWRRALQGLKTAGPAIQSVLNK [MBI 21A2]
% Lysis [3]: 0.5%

KWKSFIKKLTSAAKKVVTTAKPLISS [MBI 26]
MTD [8]: >18 mg/kg | MTD [9]: >37 mg/kg | % Lysis [3]: 0.6%

ILKKWPWWPWRRK [MBI 11]
min λ, Phosphate buffer [1]: 199 nm | max λ, TFE [1]: 220 nm | min λ, TFE [1]: 202, nm and 227 nm | Conformation in buffer [1]: Unordered | Conformation in TFE [1]: β-turn | lysis [3]: 2.3% | red blood cell lysis [3]: substantial lysis

ILKKWVWWVWRRK [MBI 11F1CN]
% Lysis [3]: 2.1%

ILKKWPWWPWK [MBI 11G13CN]
% Lysis [3]: 0.2%

ILKKWWWPWRRK [MBI 11G4CN]
min λ, Phosphate buffer [1]: 199, nm and 221 nm | max λ, TFE [1]: 215 nm | min λ, TFE [1]: 201, nm and 226 nm | Conformation in buffer [1]: Unordered | Conformation in TFE [1]: β-turn

ILKKWPWWPWRRK [MBI 11E3CN]
max λ, Phosphate buffer [1]: 226 nm | min λ, Phosphate buffer [1]: 202 nm | min λ, TFE [1]: 200 nm | Conformation in buffer [1]: ppII helix | Conformation in TFE [1]: Unordered | LD50 [5]: 21 mg/kg | LD90-100 [5]: 40 mg/kg | MTD [5]: <20 mg/kg | % Lysis [3]: 1.3%

ILKKWWWPWRK [MBI 11D14CN]
% Lysis [3]: 1.1%

ILKKWPWWPWRRK [MBI 11E1CN]
min λ, Phosphate buffer [1]: 201 nm | min λ, TFE [1]: 201 nm | Conformation in buffer [1]: Unordered | Conformation in TFE [1]: Unordered | % Lysis [3]: 0.8%

ILKKNPNNPNRK [MBI 11B4ACN]
min λ, Phosphate buffer [1]: 200 nm | min λ, TFE [1]: 200 nm | Conformation in buffer [1]: Unordered | Conformation in TFE [1]: Unordered

ILKKFPFWPWRRK [MBI 11A7CN]
% Lysis [3]: 0.5%

ILKKNPNNPNRRK [MBI 11CNY1]
min λ, Phosphate buffer [1]: 200 nm | min λ, TFE [1]: 200 nm | Conformation in buffer [1]: Unordered | Conformation in TFE [1]: Unordered

ILKKNPNNPRRK [MBI 11G6ACN]
min λ, Phosphate buffer [1]: 200 nm | min λ, TFE [1]: 199 nm | Conformation in buffer [1]: Unordered | Conformation in TFE [1]: Unordered

KWKSFIKKLTSAAKKVLTTGLPALIS [MBI 29A3]
% Lysis [3]: 2.0%

ILKKFPWFPWRRK [MBI 11A6CN]
% Lysis [3]: 0.7%

GKPRPYSPIPTSPRPIRY [MBI 31]
% Lysis [3]: 0.3%

ILKKWPWWPWRK [MBI 11B4CN]
% Lysis [3]: 1.6%

ILKWPWWPWRK [MBI 11B5CN]
% Lysis [3]: 1.7%

ILKKYPYYPYRRK [MBI 11A3CN]
% Lysis [3]: 0.0%

ILKWPWWPWRRK [MBI 11B3CN]
% Lysis [3]: 3.3%

ILKKPWWPWRRK [MBI 11G3CN]
% Lysis [3]: 0.5%

ILKKWPWWPRRK [MBI 11G6CN]
% Lysis [3]: 0.6%

ILKKWPWWPWRRK [MBI 11ACN]
min λ, Phosphate buffer [1]: 199 nm | max λ, TFE [1]: 219 nm | min λ, TFE [1]: 203 nm | Conformation in buffer [1]: Unordered | Conformation in TFE [1]: Unordered

ILKKWPWWPWRRIMILKKAGS [MBI 11D6CN]
% Lysis [3]: 1.1%

ILKKWPWWWRRK [MBI 11G5CN]
% Lysis [3]: 0.6%

ILKKWPWWPWRRKMILKKAGS [MBI 11D4CN]
% Lysis [3]: 0.9%

From US20020035061A1, “COMPOSITIONS AND METHODS FOR TREATING INFECTIONS USING CATIONIC PEPTIDES ALONE OR IN COMBINATION WITH ANTIBIOTICS” (priority 1996, published 2002)
